Source: patent US20040058168A1, “Method for incorporating anionic molecules into a substrate for increasing dispersibility of anionic molecules” (priority 2002, published 2004)

Assay: Test-tube determination of anionic character: dye mixed with organoclay, clean clay or quat in water, centrifuged, judged visually
Type: physicochemical
Conditions: Test Tube 3, in water
Text: At the outset of the method of the present invention, it must first be determined if a particular chemical ion or molecule will be able to undergo the method of enhancing its dispersibility and thereby its anionic properties as disclosed herein. Thus, a determination must be made (for example, if the ionic character of a certain compound is unknown) whether or not the ion or molecule comprises a useful anionic portion that will react with a cationic compound (such as a quat) which (1) is already reacted onto the surface of a substrate such as a clay or (2) is to be reacted onto the surface of such a substrate after reacting with the anion of interest. Thus, the molecule or ion can be tested in order to determine whether it has an anionic character (and thus can undergo the present method) or a cationic character or a neutral character. In testing certain molecules or ions, the procedure described below was employed.
Using Jarocol Straw Yellow dye as a representative example, four 1 mg samples of the dye were weighed and placed in 4 test tubes. […]
The analysis herein was performed visually, since the six samples tested were dyes. […] For example, for a non-dye sample, the clay may be separated from the water, both parts may be taken to dryness, and the IR spectrum of each may be recorded.

Solubility of reaction product with quat: highly insoluble reaction product
SMILES: Cc1ccc(N=Nc2c([O-])c(C(=O)O)cc3ccccc23)c(S(=O)(=O)[O-])c1.[Na+].[Na+] [Lithol Rubine B]
